Columns and labels:
hEP4 [1] = target: T1, hEP4 (Homo sapiens (Human), UniProt P35408); assay: Radioligand binding ([3H]PGE2), HEK-293 cell membranes expressing EP4 receptor; conditions: top number in Table 2
Procedure: HEK-293 cells stably expressing the human or feline FP receptor, or EP1, EP2, EP3, or EP4 receptors were washed with TME buffer, scraped from the bottom of the flasks, and homogenized for 30 sec using a Brinkman PT 10/35 polytron. TME buffer was added to achieve a final 40 ml volume in the centrifuge tubes (the composition of TME is 100 mM TRIS base, 20 mM MgCl2, […]; 10N HCl is added to achieve a pH of 7.4).
The cell homogenate was centrifuged at 19000 r.p.m. for 20 min at 4° C. using a Beckman Ti-60 rotor. The resultant pellet was resuspended in TME buffer to give a final 1 mg/ml protein concentration, as determined by Biorad assay. Radioligand binding competition assays vs. [^3H-]17-phenyl PGF2α, (5 nM) were performed in a 100 μl volume for 60 min. Binding reactions were started by adding plasma membrane fraction. The reaction was terminated by the addition of 4 ml ice-cold TRIS-HCl buffer and rapid filtration through glass fiber GF/B filters using a Brandel cell harvester. The filters were washed 3 times with ice-cold buffer and oven dried for one hour. Non-specific binding was determined with 10 uM unlabeled 17-phenyl PGF2α.
[^3H-] PGE2 (5 nM; specific activity 180 Ci mmol) was used as the radioligand for EP receptors. […] Non-specific binding determined with 10^−5M of unlabeled PGE2.

By UniProt entry, the sequences of proteins in these tests, tags left out. Where a name states a change or a piece, a line headed by the entry shows the natural chain unless it says otherwise.
UniProt P35408: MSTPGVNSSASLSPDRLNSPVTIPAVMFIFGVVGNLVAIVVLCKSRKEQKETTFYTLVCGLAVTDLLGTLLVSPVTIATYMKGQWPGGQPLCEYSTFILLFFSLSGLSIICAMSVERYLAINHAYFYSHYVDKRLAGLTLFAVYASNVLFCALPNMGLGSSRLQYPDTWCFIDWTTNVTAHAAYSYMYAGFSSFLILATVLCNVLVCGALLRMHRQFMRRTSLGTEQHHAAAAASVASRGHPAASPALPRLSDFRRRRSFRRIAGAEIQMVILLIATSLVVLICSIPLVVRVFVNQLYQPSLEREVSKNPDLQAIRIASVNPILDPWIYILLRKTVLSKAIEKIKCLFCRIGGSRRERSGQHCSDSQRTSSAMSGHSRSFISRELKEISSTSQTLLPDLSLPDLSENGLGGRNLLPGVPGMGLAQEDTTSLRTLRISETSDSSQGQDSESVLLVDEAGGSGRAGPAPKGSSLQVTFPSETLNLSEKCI

hEP4 [2] = target: T1, hEP4; assay: FLIPR calcium signal, HEK-293(EBNA) cells expressing hEP4/Gqs5; type: cell-based; conditions: bottom number in Table 2
Procedure: HEK-293(EBNA) cells, stably expressing one type or subtype of recombinant human prostaglandin receptors (prostaglandin receptors expressed: hDP/Gqs5; hEP1; hEP2/Gqs5; hEP3A/Gqi5; hEP4/Gqs5; hFP; hIP; hTP), were cultured in 100 mm culture dishes in high-glucose DMEM medium containing 10% fetal bovine serum, 2 mM 1-glutamine, 250 μg/ml geneticin (G418) and 200 μg/ml hygromycin B as selection markers, and 100 units/ml penicillin G, 100 μg/m streptomycin and 0.25 μg/m amphotericin B.
Cells were seeded at a density of 5×10^4 cells per well in Biocoat® Poly-D-lysine-coated black-wall, clear-bottom 96-well plates (Becton-Dickinson) and allowed to attach overnight in an incubator at 37° C. Cells were then washed two times with HBSS-HEPES buffer (Hanks Balanced Salt Solution without bicarbonate and phenol red, 20 mM HEPES, pH 7.4) using a Denley Cellwash plate washer (Labsystems). […]
Cells were excited with an Argon laser at 488 nm, and emission was measured through a 510-570 nm bandwidth emission filter (FLIPR™, Molecular Devices, Sunnyvale, Calif.). […] The peak increase in fluorescence intensity was recorded for each well. […] The peak fluorescence change in each drug-containing well was then expressed relative to the controls. […]

hEP4 radioligand binding IC50 (hEP4 [1]): > 10 µM | hEP4 functional EC50 (hEP4 [2]): >10K
SMILES: COC(=O)CCCC#CC[C@H]1C(=O)C(C)(C)[C@@H](O)[C@@H]1/C=C/C(O)CCc1sc2ccccc2c1Cl (single isomer, unassigned) [Compound 34]

Source: patent publication US9156810B2, “Treatment of inflammatory bowel disease” (ALLERGAN, INC., priority 2003, dated 2015)
